In ChEMBL document CHEMBL1134376, “Structure-activity relationship studies of 4-[2-(diphenylmethoxy)ethyl]-1-benzylpiperidine derivatives and their N-analogues: evaluation of O-and N-analogues and their binding to monoamine transporters” (J Med Chem, 2001) one finds Ratio and IC50 data, which are given here for 2 compounds.

The chains behind the UniProt entries cited, without tags or fusion partners.
UniProt Q9WTR4, whole entry: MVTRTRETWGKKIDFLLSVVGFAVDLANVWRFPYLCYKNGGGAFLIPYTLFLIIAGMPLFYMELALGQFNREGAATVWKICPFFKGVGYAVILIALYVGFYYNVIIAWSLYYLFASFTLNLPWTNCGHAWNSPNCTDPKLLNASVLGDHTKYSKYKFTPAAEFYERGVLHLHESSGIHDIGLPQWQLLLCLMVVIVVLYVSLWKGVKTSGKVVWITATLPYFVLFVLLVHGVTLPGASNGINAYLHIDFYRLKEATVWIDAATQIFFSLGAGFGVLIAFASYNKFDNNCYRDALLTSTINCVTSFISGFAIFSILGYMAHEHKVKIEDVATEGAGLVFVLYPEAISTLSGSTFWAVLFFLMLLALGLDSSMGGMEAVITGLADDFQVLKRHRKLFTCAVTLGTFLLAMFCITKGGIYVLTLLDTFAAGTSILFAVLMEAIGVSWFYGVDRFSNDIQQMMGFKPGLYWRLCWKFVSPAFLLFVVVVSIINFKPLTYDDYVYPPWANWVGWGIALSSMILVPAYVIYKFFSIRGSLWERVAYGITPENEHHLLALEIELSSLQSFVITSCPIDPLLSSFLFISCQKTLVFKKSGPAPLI

The target of assay [1] is Sodium-dependent dopamine transporter (Rattus norvegicus) (UniProt P23977). In words: Ratio of ([3H]-DA uptake) / [3H]WIN-35428 binding was determined in […].
Assay [2] has as its target Norepinephrine transporter (Rattus norvegicus, UniProt Q9WTR4). The assay can be described thus: Affinity at norepinephrine transporter (NET) in rat striatum, using [3H]- nisoxatine as radioligand. The class given is tissue-based.

As for `N#Cc1ccc(CN2CCC(CCOC(c3ccccc3)c3ccccc3)CC2)cc1`, in assay [1], the Ratio turned out to be 1.23.
The compound `COC(=O)[C@H]1[C@@H](OC(=O)c2ccccc2)C[C@@H]2CC[C@H]1N2C` [COCAINE] had an IC50 in assay [2] of 3.53 µM.
